Experimental data from paper PMC5175178, “Development of an in-vivo active reversible butyrylcholinesterase inhibitor” (Scientific Reports, 2016).

Amino acid sequences for entries named in this document (tags omitted). Residues count along the entry.
UniProt P06276, 29-602: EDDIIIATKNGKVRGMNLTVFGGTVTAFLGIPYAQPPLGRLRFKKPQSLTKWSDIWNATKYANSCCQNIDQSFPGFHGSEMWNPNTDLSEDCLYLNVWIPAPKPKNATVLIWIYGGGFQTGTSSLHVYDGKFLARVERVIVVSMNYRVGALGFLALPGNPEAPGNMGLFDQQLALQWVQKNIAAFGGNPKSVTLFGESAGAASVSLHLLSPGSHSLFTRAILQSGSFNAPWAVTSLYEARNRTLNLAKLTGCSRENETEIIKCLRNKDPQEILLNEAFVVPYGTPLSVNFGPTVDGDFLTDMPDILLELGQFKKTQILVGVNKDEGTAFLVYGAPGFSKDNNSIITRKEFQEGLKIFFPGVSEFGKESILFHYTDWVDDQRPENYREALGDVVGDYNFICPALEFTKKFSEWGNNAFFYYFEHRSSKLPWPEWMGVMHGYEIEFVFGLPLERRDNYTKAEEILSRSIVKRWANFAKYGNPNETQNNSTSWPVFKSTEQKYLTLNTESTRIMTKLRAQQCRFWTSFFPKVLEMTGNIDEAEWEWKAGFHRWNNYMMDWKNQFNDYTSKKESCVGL

Molecular target: T1, huBChE (Homo sapiens, UniProt P06276)
T1 construct: made in house
Assay: biochemical
Format: biochemical

Row | SMILES | IC50 [nM] | fold higher IC50 against huBChE than for compound 2 [fold]
1 | COCCN(CC1CCCN(C2Cc3ccccc3C2)C1)S(=O)(=O)c1ccc2ccccc2c1 (racemic) [compound 3, (±)-N-((1-(2,3-dihydro-1H-inden-2-yl)piperidin-3-yl)methyl)-N-(2-methoxyethyl)naphthalene-2-sulfonamide] | 53 ± 4 | 
2 | COCCN(CC1CCCN(C2Cc3ccccc3C2)C1)S(=O)(=O)c1cccc(N)c1 (racemic) [compound 4, (±)-3-amino-N-((1-(2,3-dihydro-1H-inden-2-yl)piperidin-3-yl)methyl)-N-(2-methoxyethyl)benzenesulfonamide] | 197 ± 8 | 
3 | COCCCN(CC1CCCN(Cc2ccccc2)C1)S(=O)(=O)c1ccc2ccccc2c1 (racemic) [compound 5, (±)-N-((1-benzylpiperidin-3-yl)methyl)-N-(3-methoxypropyl)naphthalene-2-sulfonamide] | 14.4 ± 0.8 | 3
4 | O=S(=O)(NCC1CCCN(Cc2ccccc2)C1)c1ccc2ccccc2c1 (racemic) [compound 7, (±)-N-((1-benzylpiperidin-3-yl)methyl)naphthalene-2-sulfonamide] | 56.9 ± 9.8 | 
5 | CN(CC1CCCN(Cc2ccccc2)C1)S(=O)(=O)c1ccc2ccccc2c1 (racemic) [compound 8, (±)-N-((1-benzylpiperidin-3-yl)methyl)-N-methylnaphthalene-2-sulfonamide] | 25 ± 3.8 | 
6 | COCCCN(CC1CCN(Cc2ccccc2)CC1)S(=O)(=O)c1ccc2ccccc2c1 [compound 6, N-((1-benzylpiperidin-4-yl)methyl)-N-(3-methoxypropyl)naphthalene-2-sulfonamide] | 19.3 ± 3.7 | 
7 | COCCN(CC1CCN(Cc2ccccc2)CC1)S(=O)(=O)c1ccc2ccccc2c1 [compound 75, N-((1-benzylpiperidin-4-yl)methyl)-N-(2-methoxyethyl)naphthalene-2-sulfonamide] | 39.4 ± 2.8 | 
8 | COCCN(CC1CCN(C2Cc3ccccc3C2)CC1)S(=O)(=O)c1ccc2ccccc2c1 [compound 84, N-((1-(2,3-dihydro-1H-inden-2-yl)piperidin-4-yl)methyl)-N-(2-methoxyethyl)naphthalene-2-sulfonamide] | 52.5 ± 2 | 
9 | COCCCN(CC1CCN(C2Cc3ccccc3C2)CC1)S(=O)(=O)c1ccc2ccccc2c1 [compound 85, N-((1-(2,3-dihydro-1H-inden-2-yl)piperidin-4-yl)methyl)-N-(3-methoxypropyl)naphthalene-2-sulfonamide] | 71.2 ± 1.9 | 
10 | O=S(=O)(NCC1CCN(Cc2ccccc2)CC1)c1ccc2ccccc2c1 [compound 86, N-((1-benzylpiperidin-4-yl)methyl)naphthalene-2-sulfonamide] | 195 ± 17 | 
